# pIC50: −log10 of the molar value.
# Target: P-selectin (Homo sapiens) (UniProt P16109)
# Experiment: Inhibition of P-selectin-mediated adhesion of HL60 cells
smiles,measurement,value
O=C(O)Cc1cccc(-c2cc(CCCCCCc3ccc(O[C@H]4O[C@H](CO)[C@@H](O)[C@H](O)[C@@H]4O)c(-c4cccc(CC(=O)O)c4)c3)ccc2O[C@H]2O[C@H](CO)[C@@H](O)[C@H](O)[C@@H]2O)c1 [TBC-1269],pIC50,4.15

# Reference: BindingDB's records for doi:10.1021/jm0602256 (Wyeth Research, 2007)
